From patent US7144731B2, “SCF antibody compositions and methods of using the same” (Amgen Inc., priority 1989, dated 2006)

Tests used:
human bone marrow = test: Human bone marrow colony assay; format: cell-based; conditions: agar colony assay, factors alone or combined
normal human bone marrow = test: Human CFU-GM assay; format: cell-based; conditions: average of triplicate cultures; SCF = COS-1 supernatant 4 days after transfection
Protocol: Recombinant rat SCF, and other factors, were tested individually in a human CFU-GM [Broxmeyer et al., supra (1977)] assay which measures the proliferation of normal bone marrow cells and the data are shown in Table 6. Results for COS-1 supernatants from cultures 4 days after transfection with V19.8 SCF^1-162 in combination with other factors are also shown in Table 6. Colony numbers are the average of triplicate cultures.

B1: IL-3: human interleukin-3 (protein, UniProt P08700 20-152, looked up)
Interleukin-3: APMTQTTPLKTSWVNCSNMIDEIITHLKQPPLPLLDFNNLNGEDQDILMENNLRRPNLEAFNRAVKSLQNASAIESILKNLLPCLPLATAAPTRHPIHIKDGDWNEFRRKLTFYLKTLENAQAQQTTLSLAIF
Colony #/10^5 cells (14 Days) (human bone marrow): 23 ± 1 | Colony #/100,000 cells (±SEM) (normal human bone marrow): 5 ± 1
